{"source": "paper PMC5216351", "about": "“Obtaining control of cell surface functionalizations via Pre-targeting and Supramolecular host guest interactions” (Scientific Reports, 2017)", "key": {"[1]": {"system": "MDAMB231 X4 cells", "experiment": "Host-guest dependent cell functionalization, confocal microscopy and flow cytometry", "format": "cell-based, human", "details": "peptide 10 μM, polymer 10 μM β-CD / 1 μM polymer, 1 h each at 0 °C; Fig. 3a", "method": "The receptor-mediated functionalization of cells was examined by confocal microscopy and flow cytometry (see also ‘Ac-TZ14011-Ad induced cell functionalization analyzed by flow cytometry’). For Confocal microscopy MDAMB231 × 4 cells (80,000 per well) were incubated with either Ac-TZ14011 (10 μM), Ac-TZ14011-Ad (10 μM), or none, for 1 h at 0 °C in 1 mL DMEM. Subsequently, either Cy5_0.4PIBMA39 or Cy5_0.5CD10PIBMA39 was added (10 μM β-CD; 1 μM polymer final concentration) and another hour at 0 °C of incubation followed. Thereafter, the cells were washed twice with PBS and confocal images were acquired. […] The Cy5 signal present on the cell in each sample was quantified to analyze differences between the amount of binding of the polymers to the cells when either, no peptide, Ac-TZ14011, or Ac-TZ14011-Ad was present. For normalization all results were divided by the average fluorescence value obtained when just the polymer was added. The significance of the obtained differences was determined by student T-test (two tailed, unpaired).\nBesides examining the receptor-mediated functionalization of cells by confocal microscopy (see ‘Ac-TZ14011-Ad induced cell functionalization analyzed by confocal microscopy’) the functionalization was also examined by flow cytometry to quantify the rate of functionalization. […]\nMDAMB231 X4 cells were trypsinized (using 0.5% trypsin/EDTA, BD Biosciences) and counted. […]"}, "[2]": {"molecular_target": "chemokine receptor 4 (CXCR4) (Homo sapiens, UniProt P61073)", "details": "read-out: affinity; unmodified peptide; given as affinity, compared with KD; cited from earlier work"}}}
{"smiles": "CC(=O)N[C@@H](CCCNC(=N)N)C(=O)N[C@@H](CCCNC(=N)N)C(=O)N[C@@H](Cc1ccc2ccccc2c1)C(=O)N[C@H]1CSSC[C@@H](C(=O)N[C@@H](CCCNC(=N)N)C(N)=O)NC(=O)[C@H](CCCNC(N)=O)NC(=O)[C@H](CCCNC(=N)N)NC(=O)[C@H](Cc2ccc(O)cc2)NC(=O)[C@@H]2CCCN2C(=O)[C@@H](CCCCN)NC(=O)[C@H](CCCNC(=N)N)NC(=O)[C@H](CCCNC(N)=O)NC(=O)[C@H](Cc2ccc(O)cc2)NC1=O", "values": [{"measurement": "effect of pre-targeting peptide on Cy5_0.5CD10PIBMA39 binding", "setting": "[1]", "result": "induces enhanced binding of the CD-polymer"}, {"measurement": "Kd", "setting": "[2]", "result": 8.6, "unit": "nM"}]}
